The values that follow are results of earlier work, collected in paper PMC4474859, “Structure of Importin-α from a Filamentous Fungus in Complex with a Classical Nuclear Localization Signal” (PLoS ONE, 2015).

The Kd is the concentration at which binding is half-saturated.

The data set has as its target MmImpα. The settings on record: minor site of MmImpα; ITC; read-out: Kd, hPLSCR4 NLS peptide, MmImpα. An excerpt:
Affinity assays between NLS peptides and Impα proteins have been performed based in indirect affinity measurements, using Surface Plasmon Resonance (SPR), and ITC [19, 38, 55]. Indirect affinity measurements between NLSs and Impα proteins reported dissociation constants in the nM range and permitted the comparison among these molecules. SPR experiments was only able to estimate the peptide-protein affinity in the μM range which was lately confirmed by ITC experiments. The comparison between ITC analysis of MmImpα/SV40NLS [19] and NcImpα/SV40NLS is consist ...

For the sequence GSIIRKWN [hPLSCR4 NLS peptide], the Kd is 48.7 ± 6.5 µM.
